Assay results as given in article PMC3593252 (ACS medicinal chemistry letters, 2013).

Tested on: acetylated tubulin, acetylated histone H3, acetylated histone H4 and p21 in MDA-MB-231 cell lines
Test: Western blot analysis in MDA-MB-231 cell line
Format: cell-based
Conditions: 1 μM, 3 h vs 24 h

## O=C(CCCCCCC(=O)Nc1ccccc1)NO [SAHA, vorinostat, reference compound]
  effect on histone H4 acetylation with time: decreased with time
